The record followed here is paper PMC6398935 (The Biochemical journal, 2016).

For this assay, the target named is T1, factor H binding protein (fHbp) variant 1.1, wild type (Neisseria meningitidis serogroup B …, UniProt Q9JXV4).
T1 construct: source: E. coli BL21(DE3), purified
Description: SPR. The note with it: both partners purified.

B1: murine anti-fHbp monoclonal antibody JAR5 (IgG2b) (antibody, V domains shown)
VH: QVQMQQPGAELVKPGASVKLSCKASGYTFISYWMHWVKQRPGRGLEWIGRIAPDTGIIYYNEKFKNKATLTVDTPSSTAYMQLNSLTSEDSAVYYCARYLKYDGSTYRFDYWGQGTTLTVSS
VL: DIVMTQAAPSVPVTPGESVSISCRSSKSLLHSNGNTYLFWFLQRPGQSPQLLIYRMSNLASGVPDRFSGSGSGTSFTLRISRVEAEDVGVYYCMQHLEYPYTFGGGTKLEIK
By Kd is commonly meant the free concentration of one partner at which half of the binding sites on the other are occupied at equilibrium, for simple one-to-one binding. B1 yielded a Kd of 190 pM. This counts as sub-nanomolar.
